Test system: NCI-N87 xenograft
Experiment: Antitumor test in vivo, NCI-N87 xenograft (Example 5)
Design: species or system Female Nude mice
Protocol: Female Nude mice (Charles River) aged 5-8 weeks were used, following 7 days acclimatisation before entry into the study. 1×10^7 NCI-N87 tumour cells (1:1 in Matrigel) were implanted subcutaneously onto the flank of the female Nude mice. When tumours reached approximately 150 mm^3, similar-sized tumours were randomly assigned to treatment groups as shown in Table 4:
The dose of compound for each animal was calculated based on the individual body weight on the day of dosing. DS-8201 and AZD5305 were dosed on the same day, with DS-8201 being administered approximately 1 hour post the PO dose of AZD5305. DS-8201 was administered as a single dose at 1 mg/kg or 3 mg/kg on day 1, and AZD5305 was administered at 1 mg/kg QD for 28 days. Duration of dosing was for 28 days.
The dosing solutions for DS-8201 were prepared on the day of dosing by diluting the DS-8201 stock (20.1 mg/ml) in 25 mM histidine buffer, 9% sucrose (pH5.5) to 0.6 mg/ml, and 0.2 mg/ml for the 3 mg/kg and 1 mg/kg dosing solutions, respectively. […]
Tumour growth inhibition (TGI) was calculated as follows: TGI %={1−(MTV treated/MTV control)}*100 where MTV=mean tumor volume.
Statistical significance was evaluated using one-tailed t-test of (log(relative tumour volume)=log(final vol/start vol)) at the day of final measure, comparing to vehicle control.

trastuzumab deruxtecan [DS-8201]
TGI % day 41 (DS-8201 1 mg/kg IV single dose, 1 mg/kg): 25% | TGI % day 41 (DS-8201 3 mg/kg IV single dose, 3 mg/kg): 62%

— patent US12721905B2, “Combination of anti-HER2 antibody-drug conjugate and PARP1 selective inhibitor” (AstraZeneca UK Limited, priority 2020, dated 2026)
